Structures are written as SMILES. Only a part is listed here, and it is no random draw. Inconclusive results are not listed. Calls of active or inactive are those of the source. Calls come from the whole dose curve; as a rule, active = well fitted activation curve with a large enough effect; inconclusive = small, poorly fitted or top-dose-only effect; inactive = no such curve, though single readings can be large or run the other way.

A short description of the assay: qHTS for Activators of Integrin-Mediated Alleviation for Muscular Dystrophy.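 Note: 100% = response of the positive control SU9516; nearly all actives have a fitted effect of over 60% in size.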 The following applies: alpha7betagal myoblasts, beta-gal FDG fluorescence, 48 h; at 38.3 µM (top of the series) unless noted. (qHTS replaces the single test concentration by a dilution series.)
`CN(C)C(=O)OCCc1n(C)cc[n+]1C`: the activation is inactive: -2.56%.

With `CC(C)c1nc(Nc2ccccc2)n(P(=O)(N(C)C)N(C)C)n1`, the activation was inactive: -9.98%.

On to `CC(C)=N/N=C(\N)N[N+](=O)[O-]`, for which the activation was inactive: 14.9%.

On to `CC1CCN(C(=O)Oc2c(Cl)cc(Cl)c3cccnc23)CC1`, for which the activation is inactive: -15.8%.

Regarding `c1cc(-c2nn[nH]n2)ccc1-c1nn[nH]n1`, the activation was inactive: -1.51%.

For the molecule `Nc1ccc([As](=O)(O)c2ccc(N)cc2)cc1`, the activation is inactive: 14.3%.

Turning to `CCN(/C(=N/P(=O)(N1CCOCC1)N1CCOCC1)N1CCOCC1)c1ccc(OC)cc1`, the activation is inactive: -3.78%.

For `O=[N+]([O-])c1cccc2n[nH]nc12`, the activation is inactive: 20.4%.

Regarding `CC(=O)N1C2C3N(C(C)=O)C1C1N(C(C)=O)C(C(N1C(C)=O)N3C(C)=O)N2C(C)=O`, the activation is inactive: 20%.

With `CCc1nc2c(n1)c1c(non1O)c1c2no[n+]1[O-]`, the activation is inactive: -49.8%.

For the molecule `O=[N+]([O-])c1cc([N+](=O)[O-])c(CCNc2ccccc2)c([N+](=O)[O-])c1`, the activation was inactive: -6.67%.

`Cc1ccc(NP(=O)(Oc2ccccc2)Oc2ccccc2)nc1`: the activation was inactive: -17.8%.

For `COc1ccc(C2=NCC(CBr)S2)cc1` (stereo not given), the activation is inactive: -16.3%.

As for `COC(=O)C1(C)COP(=O)(Nc2ccccc2)OC1` (stereo not given), the activation was inactive: 13.8%.

As for `O=[N+]([O-])c1cccc(NC2=NCC(CBr)S2)c1` (stereo not given), the activation is inactive: -12.5%.

Turning to `O=C(O)CNc1ccc([As](=O)(O)O)cc1`, the activation is inactive: -2.6%.

Regarding `CC(C)(C)C(=O)NC(Sc1ccncn1)C(Cl)(Cl)Cl` (stereo not given), the activation was inactive: -19%.

In the case of `O=[N+]([O-])c1ncn(CCn2ncnc2[N+](=O)[O-])n1`, the activation is inactive: 0%.

As to `O=C(Nc1cc([As](=O)(O)O)ccc1O)c1ccccc1`, the activation is inactive: 7.16%.

Turning to `O=P1(N(CCCl)CCCl)OCCCS1` (stereo not given), the activation is inactive: -2.28%.

For the molecule `CCN(N=Nc1nonc1N)c1nonc1N`, the activation is inactive: -0.589%.

Take `Nc1cccc2ccc([As](=O)(O)O)cc12`: the activation was inactive: -3.08%.

For the molecule `Cc1ccc(NP(=O)(Oc2ccccc2F)Oc2ccccc2F)nc1`, the activation is inactive: 8.43%.

In the case of `Cc1cc(SC(NC(=O)c2ccc(F)cc2)C(Cl)(Cl)Cl)ncn1` (stereo not given), the activation was inactive: -14.2%.

Regarding `CCOP(=O)(Nc1ccccc1)OCC`, the activation was inactive: -1.58%.

As to `CCCC1OP(N)(=O)OCC1CC` (stereo not given), the activation was inactive: -16.8%.

For `CC(=O)Nc1ccc([As](=O)(O)O)cc1`, the activation is inactive: 4.5%.

`O=C(O)c1ccccc1[As](=O)(O)O`: the activation is inactive: 2.1%.

For `O=P(Nc1nc2ccc(Cl)cc2s1)(c1ccccc1)c1ccccc1`, the activation is inactive: 15.8%.

Consider `CN(C)P(=O)(N(C)C)n1c(Nc2ccccc2)nnc1-c1ccccc1`, for which the activation is inactive: -10.9%.

On to `Nc1cc(N)c2nonc2c1[N+](=O)[O-]`, for which the activation was inactive: 20.1%.

Turning to `CC(C)CC(=O)NC(Sc1ccc(Cl)cc1)C(Cl)(Cl)Cl` (stereo not given), the activation is inactive: 7.5%.

Consider `O=C(NC(Sc1ccncn1)C(Cl)(Cl)Cl)c1ccccc1` (stereo not given), for which the activation is inactive: -11.9%.

As to `Oc1ccccc1CNc1ccccn1`, the activation was inactive: 0.304%.

`Cc1ccc(OP(=O)(Nc2nccs2)Oc2ccc(C)cc2)cc1`: the activation was inactive: 11.6%.

`COc1ccccc1OP(=O)(Nc1ccc(C)cn1)Oc1ccccc1OC`: the activation was inactive: 15.8%.

For the molecule `CN1CCCC(OC(=O)C(c2ccccc2)c2ccccc2)C1` (stereo not given), the activation was inactive: -9.32%.

Regarding `Clc1ccc(Cl)c(NC2=NCC(CBr)S2)c1` (stereo not given), the activation is inactive: -23.1%.

On to `NC(=O)c1cc([N+](=O)[O-])cc([N+](=O)[O-])c1N`, for which the activation was inactive: 2.21%.

Regarding `Cc1ccc(N/C(=N/P(=O)(N2CCOCC2)N2CCOCC2)N2CCOCC2)cc1`, the activation was inactive: -1.01%.

With `CC(=O)Nc1ccc(Oc2c([N+](=O)[O-])cc([N+](=O)[O-])cc2[N+](=O)[O-])cc1`, the activation was inactive: 14.6%.

In the case of `CC(=O)Nc1ccc([As](=O)(O)O)c(O)c1`, the activation is inactive: -3.07%.

For the molecule `COC(=O)C1(C)COP(=O)(NCc2ccccc2)OC1` (stereo not given), the activation was inactive: 23.6%.

In the case of `N#C/C(=C\c1ccc(N(CCBr)CCBr)cc1)C(N)=O`, the activation was inactive: -25%.

As for `C[C@H]1OP(=O)(Oc2ccccc2)C[C@@H]2O[C@@H]21` (stereo not given in full), the activation was inactive: 16.9%.

Consider `C[C@@H]1C=CCP(=O)(Oc2ccccc2)O1` (stereo not given in full), for which the activation was inactive: 7.21%.

As for `Cc1ccccc1CN(C)C(=O)COC(=O)C(O)(c1ccccc1)c1ccccc1`, the activation is inactive: -7.29%.

On to `CCc1cc(O)c([N+](=O)[O-])c(C)c1[N+](=O)[O-]`, for which the activation was inactive: 10.9%.

With `CC(C)(C)C(=O)NC(Sc1ccccc1)C(Cl)(Cl)Cl` (stereo not given), the activation was inactive: 13.4%.

Regarding `CCOc1ccc(C2=NCC(CBr)S2)cc1` (stereo not given), the activation was inactive: 8.75%.

Turning to `O=P1(Nc2nc3ccc(Cl)cc3s2)COc2ccccc2O1` (stereo not given), the activation was inactive: 2.92%.

For the molecule `O=c1c2cc([N+](=O)[O-])ccc2[nH]c2c([N+](=O)[O-])cc([N+](=O)[O-])cc12`, the activation was inactive: -67%.

On to `CN(C)C(=O)Oc1noc2ccccc12`, for which the activation was inactive: -13.9%.

Consider `CC(NC(=O)COC(=O)C(O)(c1ccccc1)c1ccccc1)c1ccccc1` (stereo not given), for which the activation was inactive: 2.42%.

For `Cc1ccccc1OP(=O)(Nc1ccccn1)Oc1ccccc1C`, the activation was inactive: -12.7%.

As to `CC(=O)NC(SC(=S)N(CC(C)C)CC(C)C)C(Cl)(Cl)Cl` (stereo not given), the activation is inactive: 10.4%.

`Cc1ccc(OP(=O)(Nc2ccccn2)Oc2ccc(C)cc2)cc1`: the activation was inactive: -18.2%.

For `COC(=O)c1cc2c(s1)N=C(c1ccccc1)N(C)P2(=O)N1CCOCC1` (stereo not given), the activation was inactive: -25.6%.

`CCC(=O)N1C2C3N(C(=O)CC)C1C1N(C(=O)CC)C(C(N1C(=O)CC)N3C(=O)CC)N2C(=O)CC`: the activation was inactive: -2.85%.

For the molecule `O=C(OC1CN2CCC1CC2)c1ccccc1` (stereo not given), the activation was inactive: -12.2%.

Take `O=P1(N(CCCl)CCCl)OCCC2CCCCN21` (stereo not given): the activation is inactive: -0.628%.

In the case of `CCNC(=S)/N=C(\N)N[N+](=O)[O-]`, the activation is inactive: -23.8%.

As to `O=C(NC1CCS(=O)(=O)C1)NP(=S)(Oc1ccccc1)Oc1ccccc1` (stereo not given), the activation is inactive: -0.271%.

On to `Cc1ccc(NP(=O)(Oc2cccc(C)c2)Oc2cccc(C)c2)nc1`, for which the activation is inactive: 2.92%.

Take `c1ccc(-c2nn[nH]n2)c(-c2nn[nH]n2)c1`: the activation was inactive: 12.3%.

The record behind these values is PubChem BioAssay AID624291 (National Center for Advancing Translational Sciences (NCATS), 2012).
